Earlier results, collected in patent US20230265432A1, “METHODS AND COMPOSITIONS FOR TREATING ACUTE MYELOID LEUKEMIA” (Sanford Burnham Prebys Medical Discovery Institute, priority 2021, published 2023).

Chains of the proteins cited; added tags and fusions are not shown.
UniProt O95696, whole entry: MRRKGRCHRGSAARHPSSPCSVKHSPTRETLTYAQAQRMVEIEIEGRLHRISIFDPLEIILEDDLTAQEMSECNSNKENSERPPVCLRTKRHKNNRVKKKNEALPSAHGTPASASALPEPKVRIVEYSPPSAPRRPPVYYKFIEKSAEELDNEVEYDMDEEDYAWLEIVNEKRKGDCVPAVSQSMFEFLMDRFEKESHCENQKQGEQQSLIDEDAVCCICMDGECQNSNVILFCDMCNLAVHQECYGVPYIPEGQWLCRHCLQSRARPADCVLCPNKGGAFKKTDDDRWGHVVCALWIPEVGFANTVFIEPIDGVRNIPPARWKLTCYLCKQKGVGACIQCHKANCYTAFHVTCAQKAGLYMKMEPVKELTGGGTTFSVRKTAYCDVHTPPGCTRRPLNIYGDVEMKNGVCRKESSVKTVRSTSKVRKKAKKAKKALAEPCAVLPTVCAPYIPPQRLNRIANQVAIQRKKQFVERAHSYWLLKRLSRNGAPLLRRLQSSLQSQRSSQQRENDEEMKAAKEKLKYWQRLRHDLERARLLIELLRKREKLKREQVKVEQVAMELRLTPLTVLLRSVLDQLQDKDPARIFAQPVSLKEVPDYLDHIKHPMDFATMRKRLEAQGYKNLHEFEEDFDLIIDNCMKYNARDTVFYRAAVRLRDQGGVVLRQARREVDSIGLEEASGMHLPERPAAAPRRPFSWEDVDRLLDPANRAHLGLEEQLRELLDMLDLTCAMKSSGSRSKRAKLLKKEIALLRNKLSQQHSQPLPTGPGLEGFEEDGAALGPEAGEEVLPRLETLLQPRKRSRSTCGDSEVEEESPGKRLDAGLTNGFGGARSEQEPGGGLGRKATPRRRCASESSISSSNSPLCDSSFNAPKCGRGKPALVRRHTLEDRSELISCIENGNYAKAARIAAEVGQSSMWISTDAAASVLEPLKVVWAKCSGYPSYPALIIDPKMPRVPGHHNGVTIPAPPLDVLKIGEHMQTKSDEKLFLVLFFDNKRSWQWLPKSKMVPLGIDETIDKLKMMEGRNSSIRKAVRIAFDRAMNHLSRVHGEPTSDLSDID

Biological target: BRPF2 (Homo sapiens, UniProt O95696)
Details: cited from earlier work

With `COc1cc2c(cc1NS(=O)(=O)c1ccc(Br)cc1C)n(C)c(=O)n2C` as the molecule, how does the Kd read?
Its Kd is 500 nM.
